Ab-14 light chain CDR variants: yeast mating affinities

Target: peptide PDVDLGDISGINAS, taken from heptad repeat 2 (HR2) of SARS-CoV-2 spike.

Ab-14 is the parent antibody, in scFv form: VH, then three GGGGS repeats, then VL. The heavy chain is unchanged in all variants.
VH: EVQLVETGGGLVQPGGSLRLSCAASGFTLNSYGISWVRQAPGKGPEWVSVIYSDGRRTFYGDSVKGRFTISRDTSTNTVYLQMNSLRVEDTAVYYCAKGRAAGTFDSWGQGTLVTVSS
VL: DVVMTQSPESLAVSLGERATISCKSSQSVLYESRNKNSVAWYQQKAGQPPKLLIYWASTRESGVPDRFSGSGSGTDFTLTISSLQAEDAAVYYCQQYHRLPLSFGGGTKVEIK

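This is the validation round: designs drawn from the data on random variants, tested in the same kind of assay. Their group label is 14L_GP_Gibbs (GP: Gaussian process model; Gibbs: Gibbs sampling; a sequence that several methods proposed may carry one label only). AlphaSeq pools MATa yeast showing the antibodies with MATalpha yeast showing the peptide. The frequency of each diploid, read from paired DNA barcodes, reflects how well the two displayed proteins bind. Read counts were normalised to the haploid input and turned into Kd by a linear fit to BCL2-family pairs of known affinity, for each replicate. The assay was run in six technical replicates.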

Substitutions are numbered in sequence along the VL above, starting at 1 (not Kabat).
Numbers give log10(Kd / nM), so 0 is 1 nM and 3 is 1 µM. Smaller is tighter.
Empty control strains, which show no peptide, gave a signal in 4% of pairings with all light chain designs; the median was 2.64 and 95% of these signals were weaker than 1.59. No background was subtracted. The control count says in how many pairings with the empty strains this scFv gave a signal, with their mean in brackets.

changes,"log10 Kd, replicates",control signals
S25L Q27M V29E Y31P E61M S62P,0.19 0.05 -0.06 0.21 0.05 0.03,0/18
S25V Y31P R34C K36V W56Y S62D,1.41 1.76 1.29 1.40 1.59 1.81,1/18 (2.47)
S25L Q27Y L30E E32Q S33E W56Q T59Q,0.23 -0.29 -0.16 0.40 -0.15 0.15,0/18
S25L V29D L30C S33D K36L S38N W56H T59Q S103M,0.25 0.22 0.29 -0.01 0.15 0.21,1/18 (1.86)
S25V Q27P S28E V29W L30E E32S N37A W56H,0.45 0.40 0.21 0.12 0.13 0.55,0/18
S25L S26E V29M L30D K36D W56H T59M S103F,0.36 0.28 0.70 -0.06 0.18 0.24,1/18 (1.62)
S25V Q27M S28L V29H L30W W56E S62Q Q96D,0.41 0.63 0.28 0.30 0.13 0.34,0/18
S25L S26H V29D K36I W56N T59Q E61C,-0.15 -0.37 -0.41 -0.21 -0.17 -0.13,2/18 (2.02)
S25L V29Q S38Q W56S S62M,0.12 0.26 0.31 -0.14 0.16 0.20,0/18
S25F S26Q V29Q N35M K36M W56N T59K E61M S103K,0.28 0.18 0.00 -0.03 0.26 0.15,0/18
S25W S26Q Q27G V29W E32S W56E A57G,0.47 0.59 0.05 2.20 0.82 0.92,0/18
S28L V29E S33D N35M W56N T59Y E61L S62D,0.73 0.78 0.87 0.60 0.66 1.24,0/18
S25I S26I V29G L30P W56S E61S S62P,0.15 0.29 0.09 -0.03 0.11 0.30,1/18 (3.41)
S25L V29M S38N W56E T59Q Q96M,0.40 0.35 0.23 0.03 0.61 0.29,1/18 (2.73)
S25L S26Q L30D S38A W56E S62Q,-0.06 -0.17 -0.02 -0.18 -0.07 0.00,1/18 (1.98)
S25V V29M L30E E32Q S38N W56N T59Q S62Q Q96S,-0.12 -0.32 -0.61 -0.43 -0.35 -0.22,0/18
S25L S28E V29D L30W E32Q N35M W56D,-0.13 -0.31 -0.33 -0.36 -0.46 -0.12,0/18
S25V V29M S38N W56E T59Q S62Q Q96S,0.19 0.01 -0.17 0.32 0.09 0.19,0/18
S25F S26E Q27W V29N L30G W56N H98W,-0.04 -0.23 -0.54 -0.26 -0.28 -0.04,1/18 (1.75)
S25W Q27I S28L V29D Y31G E32G S33D W56H T59L S62Q,0.61 0.32 0.14 0.14 0.09 0.13,1/18 (1.72)
S25I Q27G V29H K36W S38A W56E T59Q,0.65 0.57 0.33 0.38 0.61 0.24,0/18
S25L S26M Q27G W56G T59Q S62K,-0.27 -0.39 -0.26 -0.42 -0.29 -0.19,0/18
S25V S26D V29W L30Q E32G W56N T59Q,0.36 0.31 0.05 -0.11 -0.09 0.49,3/18 (2.80)
S25L V29N S33E S38N W56S T59Q S62M,-0.46 -0.59 -0.68 -0.81 -0.61 -0.51,1/18 (3.49)
S25F S26P L30G E32Q W56D E61L,-0.25 -0.57 -0.51 -0.50 -0.53 -0.36,2/18 (1.69)
S25V V29M L30D W56E T59D E61L Q96D,0.83 0.13 1.33 0.33 0.71 1.51,2/18 (2.59)
S25A Q27P V29E L30E W56N T59Y E61L S62E,1.32 0.99 1.21 0.66 0.51 1.14,1/18 (1.75)
S25L S26Q Q27G V29H W56H T59L E61L Q96C,2.16 2.12 1.79 1.83 2.00 2.46,0/18
S25V S26P Q27M V29H K36M W56N T59E,0.20 0.31 0.15 0.04 -0.02 0.29,0/18
S25I S26A V29Y S33D W56N E61L S62W,-0.02 0.26 -0.03 -0.03 0.06 0.16,1/18 (2.69)
S25L S26E V29D Y31L N37Q W56Q E61M,0.33 0.12 0.19 -0.05 0.16 0.27,0/18
S25L S26D L30E E32G W56S,-0.18 0.01 -0.21 -0.28 -0.20 -0.02,1/18 (3.11)
S25M Y31M S33M K36A W56N S62M,0.48 0.44 0.43 0.36 0.27 0.35,1/18 (3.05)
S25I V29M S33P K36W W56N E61L,0.28 0.23 0.59 -0.09 0.04 0.19,0/18
S25I S26W Q27G V29Y Y31G K36W S38A W56N T59Q S62Q,0.26 0.27 0.12 0.09 -0.01 0.32,1/18 (2.70)
S25L Q27M W56N S103I,0.12 -0.08 0.07 -0.12 0.04 -0.15,0/18
S25L Q27F V29K L30G Y31G W56D S58G,0.12 0.23 0.34 -0.04 0.26 0.13,2/18 (2.90)
S25L V29M S38N W56E S58H T59Q Q96M,1.77 1.39 0.29 0.67 0.53 1.53,0/18
K24H S25L S26E V29S S33Q W56N T59Q E61C,0.09 -0.01 -0.09 -0.25 -0.01 0.12,0/18
S25F S26Q L30G E32Q S33T W56E,0.16 0.20 0.13 -0.21 0.14 0.09,4/18 (3.24)
S25V S26Q V29M L30G W56E T59D Q96D S103W,0.45 1.13 0.86 0.46 0.52 0.83,2/18 (1.95)
S25V V29Q Y31G N35M N37Q W56H T59Q,0.13 0.27 0.33 0.27 0.28 0.51,4/18 (2.80)
S25L V29W L30W Y31M S38N W56H T59K,0.67 0.53 0.72 0.48 0.79 0.57,4/18 (3.49)
S25A S26Q Q27W S28L V29W L30P E32W K36W W56N S62Q,0.38 0.36 0.17 -0.08 0.02 0.18,2/18 (3.04)

The first 3 entries again:

changes,"log10 Kd, replicates",control signals
S25L Q27M V29E Y31P E61M S62P,0.19 0.05 -0.06 0.21 0.05 0.03,0/18
S25V Y31P R34C K36V W56Y S62D,1.41 1.76 1.29 1.40 1.59 1.81,1/18 (2.47)
S25L Q27Y L30E E32Q S33E W56Q T59Q,0.23 -0.29 -0.16 0.40 -0.15 0.15,0/18

A sequence measured in both rounds can read differently, since the two assays cover different ranges.
The authors' rule: three or more of the six replicates give a measured affinity, fewer mean a poor binder.

Values reported by Li et al. 2023, doi:10.1038/s41467-023-39022-2 (FLAb copy).